These results are taken from patent publication US10428060B2, “PI-kinase inhibitors with anti-infective activity” (The Board of Trustees of the Leland Stanford Junior …, priority 2011, dated 2019).

Structures are written as SMILES.

Assay [1] concerns HRV. The assay can be described thus: Rhinovirus antiviral assay. The format is cell-based. As to conditions: Human rhinovirus sp., read-out: HRV EC50.
Assay [2] deals with HCV genotype 2a. The assay can be described thus: microbe, parasite or virus in culture. The format is cell-based. As to conditions: Hepatitis C virus, Huh7.5, read-out: HCV2a EC50. As to the method:
Anti-HCV assay: Anti-HCV assays are performed as described by Cho et al. “Identification of a class of HCV inhibitors directed against the nonstructural protein NS4B.” Sci. Transl. Med. 2011; 2(15):15ra6.

Consider `COc1ccc(-c2sc(NC(=O)CC3CCOCC3)nc2C)cc1S(=O)(=O)Nc1ccccc1C` [Compound S-228, N-[5-[4-methoxy-3-(o-tolylsulfamoyl)phenyl]-4-methyl-thiazol-2-yl]-2-tetrahydropyran-4-yl-acetamide], for which the results for the EC50 in assay [1] and in assay [2] were less than 1 nM and 100 to 1000 nM, respectively. Turning to `COc1ccc(-c2sc(NCC3CCCCC3)nc2C)cc1S(=O)(=O)Nc1ccccc1F` [Compound S-29, 5-[2-(cyclohexylmethylamino)-4-methyl-thiazol-5-yl]-N-(2-fluorophenyl)-2-methoxy-benzenesulfonamide], in assay [1], the EC50 was less than 1 nM. In the case of `COc1ccc(-c2sc(NC(=O)[C@@H](C)C3CCCCC3)nc2C)cc1S(=O)(=O)Nc1ccc(O)cc1` [Compound S-138, (2S)-2-cyclohexyl-N-[5-[3-[(4-hydroxyphenyl)sulfamoyl]-4-methoxy-phenyl]-4-methyl-thiazol-2-yl]propanamide], the EC50 in assay [1] is less than 1 nM; in assay [2], 100 to 1000 nM.
